Assay results from PubChem BioAssay AID652039 (The Scripps Research Institute Molecular Screening Center, 2013).
Only a part is listed here, and it is no random draw. The source made the active and inactive calls.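 Rule for the calls: active = activation above the mean of all tested compounds plus 3 SD, computed per campaign excluding outliers beyond control limits (cut at about 13% in these data); inactive = the rest.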

Chains of the proteins cited; added tags and fusions are not shown. Lines headed by an entry give the natural chain unless they say otherwise; changes in a name come on top.
UniProt P49862: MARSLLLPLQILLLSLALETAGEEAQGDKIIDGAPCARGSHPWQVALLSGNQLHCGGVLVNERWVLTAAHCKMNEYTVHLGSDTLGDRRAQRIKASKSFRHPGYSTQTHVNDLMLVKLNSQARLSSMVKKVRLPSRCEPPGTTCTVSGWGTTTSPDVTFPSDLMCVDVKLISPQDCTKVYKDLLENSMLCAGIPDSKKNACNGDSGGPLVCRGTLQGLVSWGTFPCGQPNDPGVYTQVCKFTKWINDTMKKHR

These compounds were tested against Kallikrein-7 (Homo sapiens) (UniProt P49862) (assay: activation of human kallikrein-7 proenzyme – biochemical, fluorescence intensity, primary screen (AID 652039)). Conditions: purified proKLK7, EDANS-DABCYL substrate fluorescence; at 7 µM; hits give high values; 100% is mature enzyme control, 0% vehicle.
In the case of `CCOP1(=S)c2c(C)nn(CCC#N)c2N=C(c2ccc(F)cc2)N1C` (stereo not drawn), the activation is reported as inactive: 0.5%. With `CN(C)C(=O)c1cc([N+](=O)[O-])cc2c1-c1c(cc([N+](=O)[O-])cc1[N+](=O)[O-])C2=O` the activation was inactive: 0.38%. For `O=[N+]([O-])c1ccc2c(c1)nnn2O`, the activation was inactive: -0.31%. With `CN(C(=O)Cc1ccc(Cl)c(Cl)c1)[C@H]1CC[C@@]2(CCCO2)C[C@@H]1N1CCCC1` the activation was inactive: -0.29%. `CCOP1(=S)c2c(C)nn(CCC#N)c2N=C(c2ccccc2F)N1C` (stereo not drawn) was tested, and the activation was inactive: -0.4%. For `O=P(Nc1nccs1)(Oc1ccccc1)Oc1ccccc1`, the activation was inactive: -0.18%. `O=C(O)COc1ccc([As](=O)(O)O)cc1[N+](=O)[O-]` was tested, and the activation was inactive: -0.4%. With `Nc1ccccc1[As](=O)(O)c1ccccc1` the activation was inactive: 0.09%. In the case of `Cc1ccc(S(=O)(=O)N(CCCN)CCCc2c(C)nc(N)[nH]c2=O)cc1`, the activation is reported as inactive: 0.46%. For `O=P1(Nc2ncccn2)COc2ccccc2OC1`, the activation was inactive: -0.24%. In the case of `Nc1cccc([As](=O)(O)c2ccccc2)c1`, the activation is reported as inactive: 0.04%. `NS(=O)(=O)c1cccc(NC(=O)COC(=O)C(O)(c2ccccc2)c2ccccc2)c1` was tested, and the activation was inactive: -0.23%. `O=P1(Nc2ccc(Br)cn2)COc2ccccc2OC1` was tested, and the activation was inactive: 0.25%. In the case of `O=[As](O)(c1cccs1)c1cccs1`, the activation is reported as inactive: -0.6%. For `Cc1ccc(OCC(=O)OC2CN3CCC2CC3)cc1` (stereo not drawn), the activation was inactive: -0.49%. In the case of `Cc1nn(-c2ccccc2)c2c1P(=O)(N1CCOCC1)N(C)C(c1ccccc1)=N2` (stereo not drawn), the activation is reported as inactive: -0.01%. With `Cc1ccc(C(=O)OC2CN3CCC2CC3)cc1` (stereo not drawn) the activation was inactive: -0.33%. In the case of `CC1CCC(C(C)C)C(OP(=O)(Nc2ccccn2)c2ccccc2)C1` (stereo not drawn), the activation is reported as inactive: -0.1%. In the case of `CN(C)C1(CNC(=O)c2ccc(S(C)(=O)=O)cc2)CCCCC1`, the activation is reported as inactive: 0.27%. In the case of `O=C(/C=C/c1ccccc1)OC1CN2CCC1CC2` (stereo not drawn), the activation is reported as inactive: -0.32%. With `CCCC1OP(=O)(Nc2ccccc2)OCC1CC` (stereo not drawn) the activation was inactive: -0.25%. With `COc1ccccc1CNC(=O)COC(=O)C(O)(c1ccccc1)c1ccccc1` the activation was inactive: 0.19%. In the case of `CN(C(=O)Cc1ccc(Cl)c(Cl)c1)[C@@H]1CCCC[C@H]1N1CCCC1`, the activation is reported as inactive: 0.1%. With `CC(C)/C=N\N=C(\N)N[N+](=O)[O-]` the activation was inactive: -0.24%. For `CN(C(=O)Cc1ccc(Cl)c(Cl)c1)C1CCCC[C@@H]1N1CCCC1` (stereo partly drawn), the activation was inactive: 0.2%. With `CC1(CBr)Cn2c(nc3ccccc3c2=O)S1` (stereo not drawn) the activation was inactive: 0.23%. `CCC1=CC2Cc3nc4ccc(Cl)cc4c(N)c3C(C1)C2` (stereo not drawn) was tested, and the activation was inactive: 0.32%. In the case of `O=P1(Nc2ccccn2)COc2ccccc2OC1`, the activation is reported as inactive: -0.34%. `CCOP(=O)(NC(=NC(C)c1ccccc1)NC(C)c1ccccc1)OCC` (stereo not drawn) was tested, and the activation was inactive: -0.19%. With `CN(CCCl)Cc1cc(Cl)c(NC2=NCCN2)c(Cl)c1` the activation was inactive: 0.16%. In the case of `CCOP(=O)(Nc1ccc(C)cn1)OCC`, the activation is reported as inactive: -0.14%. In the case of `Clc1n[nH]nc1-c1nn[nH][15n]1`, the activation is reported as inactive: -0.89%. In the case of `O=P1(N(CCCl)CCCl)NCCC(C(F)(F)F)O1` (stereo not drawn), the activation is reported as inactive: -0.56%. In the case of `CC(C)(C)C(=O)NC(Sc1ncccn1)C(Cl)(Cl)Cl` (stereo not drawn), the activation is reported as inactive: -0.73%. In the case of `O=C(OC1CN2CCC1CC2)c1cccc([N+](=O)[O-])c1` (stereo not drawn), the activation is reported as inactive: 0.28%. For `CCOC(=O)c1ccc(NC(=O)C(C)(CCl)SC)cc1` (stereo not drawn), the activation was inactive: 0.7%. In the case of `CCC(C)N(CC(C)C)C(=S)SC(NC(C)=O)C(Cl)(Cl)Cl` (stereo not drawn), the activation is reported as inactive: -0.51%. For `COP1(=S)c2c(C)nn(CCC#N)c2N=C(c2ccc(F)cc2)N1C` (stereo not drawn), the activation was inactive: 0.3%. In the case of `COC(=O)C1(C)COP(=O)(N2CCCC2)OC1` (stereo not drawn), the activation is reported as inactive: -0.51%. `O=C(O)C(=O)c1ccc(N(CCCl)CCCl)cc1` was tested, and the activation was inactive: 0.03%. With `O=C(COc1ccccc1)OC1CN2CCC1CC2` (stereo not drawn) the activation was inactive: -0.51%. With `O=C(Nc1ccncc1[N+](=O)[O-])c1ccc([N+](=O)[O-])cc1[N+](=O)[O-]` the activation was inactive: -0.29%. With `CCOC(=O)Nc1cccc([As](=O)(O)O)c1` the activation was inactive: 0.02%. `Cc1cc(SC(NC=O)C(Cl)(Cl)Cl)ncn1` (stereo not drawn) was tested, and the activation was inactive: 0.45%. In the case of `O=P(Nc1ccccn1)(c1cccc2ccccc12)c1cccc2ccccc12`, the activation is reported as inactive: 0.52%. For `O=[N+]([O-])c1ccc(Nc2ccc(Oc3ccc([N+](=O)[O-])cc3[N+](=O)[O-])cc2)c([N+](=O)[O-])c1`, the activation was inactive: -0.2%. For `O=C(O)C(O)c1ccc(N(CCCl)CCCl)cc1` (stereo not drawn), the activation was inactive: 0.47%. `CCOC(=O)Nc1ccc([As](=O)(O)O)c(O)c1` was tested, and the activation was inactive: 0.4%. `CC1CCNP(=O)(N(CCCl)CCCl)O1` (stereo not drawn) was tested, and the activation was inactive: 0.15%. In the case of `COP(=O)(OC)N1CC1c1ccccc1` (stereo not drawn), the activation is reported as inactive: 0.16%. With `CCCCOc1ccc(C(=O)NCC2(N3CCCCC3)CCCCC2)cc1OC` the activation was inactive: -0.25%. For `Cc1cc(SC(NC(=O)c2ccccc2)C(Cl)(Cl)Cl)nc(C(C)C)n1` (stereo not drawn), the activation was inactive: 0.47%. With `CC(C)c1ccc(OP(=O)(Nc2ccccn2)Oc2ccccc2F)cc1` (stereo not drawn) the activation was inactive: -0.09%. With `COC(=O)C1(C)COP(=O)(N2CCCCCC2)OC1` (stereo not drawn) the activation was inactive: -0.44%. In the case of `O=C(OC1CN2CCC1CC2)c1cccc2[nH]cnc12` (stereo not drawn), the activation is reported as inactive: -0.63%. `CCN(CC)C(=S)SC(NC=O)C(Cl)(Cl)Cl` (stereo not drawn) was tested, and the activation was inactive: 0.24%. `CC(C)NC(=O)NP(=O)(Oc1ccccc1)Oc1ccccc1` was tested, and the activation was inactive: 1.26%. For `C[As](=O)(O)c1cccc(C(=O)O)c1`, the activation was inactive: 0.6%. With `O=[As](O)(c1ccc(O)cc1)c1ccccc1O` the activation was inactive: 0.13%. In the case of `COc1cc(C(=O)NCC2(N3CCOCC3)CCCCC2)ccc1OCC(C)C`, the activation is reported as inactive: 0.22%. In the case of `O=[N+]([O-])c1ccc(-c2cc([N+](=O)[O-])c(O)c([N+](=O)[O-])c2)cc1`, the activation is reported as inactive: 0.03%. For `Cc1ccc(OP(=O)(Nc2ccc([N+](=O)[O-])cn2)Oc2ccc(C)cc2)cc1`, the activation was inactive: -0.04%. With `[N-]=[N+]=NC1CCCCC1NC(=O)c1cc([N+](=O)[O-])cc([N+](=O)[O-])c1` (stereo not drawn) the activation was inactive: 0.02%. `Cc1ccc2nc3c(c(C)c2c1)CC(C(Cl)Cl)S3` (stereo not drawn) was tested, and the activation was inactive: -0.1%. With `O=[N+]([O-])c1cc(Oc2ccc([N+](=O)[O-])cc2C(F)(F)F)cc([N+](=O)[O-])c1` the activation was inactive: -0.04%. `COc1ccc(N/C(=N/P(=O)(N2CCOCC2)N2CCOCC2)N2CCOCC2)cc1` was tested, and the activation was inactive: 0.25%. With `Cc1c2c(nc3ccccc13)SC(C(Cl)Cl)C2` (stereo not drawn) the activation was inactive: 0.01%. For `O=C(OC1CN2CCC1CC2)C12CC3CC(CC(C3)C1)C2` (stereo not drawn), the activation was inactive: 0.24%. `Cc1cc(=O)[nH]c(N[N+](=O)[O-])n1` was tested, and the activation was inactive: -0.59%. `O=P1(N(CCCl)CCCl)Nc2ccccc2N1` was tested, and the activation was inactive: -0.23%. `O=P1(N(CCCl)CCCl)OCCCN1CCCl` (stereo not drawn) was tested, and the activation was inactive: -0.14%. With `COc1ccc2nc(NP(=O)(c3ccccc3)c3ccccc3)sc2c1` the activation was inactive: -0.61%. With `COc1cc(I)ccc1[As](=O)(O)O` the activation was inactive: -0.21%.
